Assay: Food effect study (Example 11)
Settings: fed vs fasted state

Cc1cccc(C)c1OCC(C)N.Cl (centres unmarked) [mexiletine hydrochloride]
increase of AUC by food: ~16%
increase of Cmax by food: ~39%
